High-throughput results: PubChem BioAssay, several laboratories
MLLE-PAM2 inh: blocks PAM2 peptide binding to the PABP1 MLLE domain; AID 588489; inhibition, % at 20 µM; 0.36% of 360,000 active; GST-MLLE / FITC-PAM2 fluorescence polarization; in the data active = inhibition above about 35%, passing the limit was not always enough;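 also: plate controls were DMSO wells with GST-MLLE for no effect and wells lacking GST-MLLE protein for full effect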
Pemphigus Ab inh: blocks pemphigus antibody binding to human desmoglein-3; DSG3-coupled beads, scFv-anti-DSG3-GFP binding, flow cytometry; active compounds read low; binding (percent of control), % at 10 µM; 0.48% of 310,000 active; P32926; AID 588358;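 active = binding more than 3 SD below its plate's average and above zero; inconclusive = below that plate limit but binding exactly zero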;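 also: hits lower antibody fragment binding to DSG3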
PABP polyA inh: blocks human PABP binding to poly(A) RNA; 1% of 290,000 active; P11940; fluorescence polarization; AID 2014; calls only at 35 µM;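 also: calls also rest on retests at 20 µM and on dose response follow-up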
UUG fidelity: yeast start codon fidelity modulation; actives 0.13% (n = 350,000); activity score, % at 18.7 µM; S. cerevisiae UUG-firefly luciferase reporter, luminescence/redox ratio;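 active = replicate mean at a twofold rise or more, about +100% in these data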;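 note: firefly luciferase made from a UUG start codon reports start codon fidelity; reporter light over untreated wells divided by growth signal over untreated wells; some hits fall short of that in this replicate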
eIF4H FP inh: inhibitors of RNA binding by human eIF4H | Q15056 | eIF4H fluorescence polarization binding assay | inhibition, % at 35 µM | 0.94% of 290,000 active;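 also: calls also rest on retests at 20 µM and on dose response follow-up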
* hit, by the source's call; i = inactive; ? = inconclusive; / = no result; + = active, no number. An excerpt weighted towards active compounds, which were near 1.5% of everything screened. Unless noted, no rule for the calls is given here.

[1] CCOc1ccccc1C(=O)Nc1cc(C(=O)NCC(C)C)ccc1Cl
[2] CCOc1ccccc1C(=O)Nc1cc(C(=O)NCCc2ccccc2)ccc1Cl
[3] COC(=O)C[C@@H]1CC[C@H]2[C@@H](COc3ccc(NC(=O)c4ccc(OC)cc4)cc3C(=O)N2C)O1
[4] O=C1CCCC2=C1C(c1ccco1)Nc1ccc3ccccc3c12 (configuration not stated)
[5] O=C1CCCC2=C1C(c1ccc(O)c(O)c1)Nc1ccc3ccccc3c12 (configuration not stated)
[6] CCOc1ccc(C(=O)NC2CCN(C(=S)Nc3ccccc3C)CC2)cc1
[7] CN1CCN(C(=O)C[C@H]2CC[C@H]3[C@@H](COC[C@@H](O)CN3S(=O)(=O)c3cccc(Cl)c3)O2)CC1
[8] CCn1c(=O)c(C(=O)CN2CCN(S(=O)(=O)c3cc(C)ccc3C)CC2)c(N)n(Cc2ccccc2)c1=O
Screen / compound no.	1	2	3	4	5	6	7	8
MLLE-PAM2 inh	/	-0.7	/	-3.7	-13.9	-56.4	/	-9.3
Pemphigus Ab inh	/	78.7*	/	129.3	94.7	-5.5*	/	88.2*
PABP polyA inh	i	i	/	+	/	i	/	i
UUG fidelity	/	-9.1	3.9	-13.1	-9.6	/	-14.4	/
eIF4H FP inh	8.7	-3.4	/	80.5*	/	-10.5	/	-2.2

[9] CCCCc1c(C)nc2ccc(C(=O)OCC)cc2c1Cl
[10] CCOC(=O)c1ccc2nc(C)c(CC)c(Cl)c2c1
[11] C/C(=N\NC(N)=O)c1ccccc1Cl
[12] Cc1ccc(OCCC(=O)OCC(=O)NC2CCCC(C)C2C)cc1 (configuration not stated)
[13] CC1CCCC(NC(=O)COC(=O)CCC2CCCC2)C1C (configuration not stated)
[14] COc1ccc(OC)c(C2=C/C(=C/c3ccccn3)C(=O)O2)c1
[15] COc1ccc(OC)c(-c2oc3ccccc3c(=O)c2O)c1
[16] CCOC(=O)c1nnn(-c2nonc2NC(C)=O)c1C
Screen / compound no.	9	10	11	12	13	14	15	16
MLLE-PAM2 inh	-7.3	8.0	1.0	-1.2	-6.4	-41.5	20.2	-0.3
Pemphigus Ab inh	102.8	104.6	100.4	/	45.1*	111.4	103.8	51.8*
PABP polyA inh	+	i	+	/	i	i	i	i
UUG fidelity	8.0	-4.3	-16.0	32.6	-16.8	/	-19.2	-13.8
eIF4H FP inh	2.9	0.9	105.6*	/	-5.7	90.7*	-6.7	-0.6

In the list so far, 2 contain four or more nitrogen atoms.
[8] CCn1c(=O)c(C(=O)CN2CCN(S(=O)(=O)c3cc(C)ccc3C)CC2)c(N)n(Cc2ccccc2)c1=O
[16] CCOC(=O)c1nnn(-c2nonc2NC(C)=O)c1C
Screen / compound no.	8	16
MLLE-PAM2 inh	-9.3	-0.3
Pemphigus Ab inh	88.2*	51.8*
PABP polyA inh	i	i
UUG fidelity	/	-13.8
eIF4H FP inh	-2.2	-0.6

(further entries)
[17] COc1cccc(-c2ccc3c(c2)[C@@H]2[C@@H](CCN2C(=O)c2ccc(F)cc2)[C@H](CO)N3)c1
[18] O=C(NC1CCCCCC1)C(=S)N1CCCC1
[19] O=C(NC1CCCCCC1)C(=S)N1CCOCC1
[20] Cc1cc(N2CCCC2)c(F)cc1/C=C\[N+](=O)[O-]
[21] Cc1cc(N2CCC(C)CC2)c(F)cc1[N+](=O)[O-]
[22] Cc1noc(C)c1NC(=O)N[C@H]1CC[C@H](CCNC(=O)C2CCOCC2)O[C@@H]1CO
[23] Cc1ccsc1C=Nc1ccc(O)cc1
[24] Cc1ccsc1/C=N/N=C/c1sccc1C
Screen / compound no.	17	18	19	20	21	22	23	24
MLLE-PAM2 inh	/	-8.0	44.5*	-113.0	-0.7	/	21.6	-7.3
Pemphigus Ab inh	/	104.1	110.2	159.3	/	/	101.2	107.0
PABP polyA inh	/	i	i	+	i	/	i	i
UUG fidelity	-7.3	-10.4	/	/	-3.7	22.1	-19.6	-36.1
eIF4H FP inh	/	-8.9	6.2	58.4	-0.4	/	51.1*	-0.4

[25] CCOC(=O)C1=C(O)/C(=C/c2ccc(-c3ccccc3C(=O)O)o2)SC1=Nc1ccc(OC)cc1
[26] CCOC(=O)C1=C(O)/C(=C/c2ccc(-c3ccccc3C(=O)O)o2)SC1=Nc1ccc(C)cc1
[27] CCOC(=O)C1=C(O)/C(=C/c2cn(CC(=O)NCC3CCCO3)c3ccccc23)SC1=Nc1ccc(C)cc1 (configuration not stated)
[28] CCOC(=O)C1=C(O)/C(=C/c2ccccn2)SC1=Nc1ccc(Cl)cc1
[29] CCOC(=O)C1=C(O)/C(=C/c2ccc(OCC(=O)O)c(OCC)c2)SC1=Nc1ccccc1
[30] CCOC(=O)C1=C(O)/C(=C/c2cc(OC)c(O)c(OC)c2)SC1=Nc1ccc(OC)cc1
[31] C[C@H](CO)N1C[C@H](C)[C@H](CN(C)C(=O)C2CC2)Oc2cc(-c3cncnc3)ccc2S1(=O)=O
[32] Cc1cc(C(=O)CSc2nc(N)cc(N)n2)c(C)n1-c1cccc(C(F)(F)F)c1
Screen / compound no.	25	26	27	28	29	30	31	32
MLLE-PAM2 inh	-75.3	-109.9	114.8	-4.4	14.7	-53.1	/	-13.6
Pemphigus Ab inh	102.2	70.9*	/	93.4	96.2	107.5	/	101.9
PABP polyA inh	+	/	/	i	i	i	/	i
UUG fidelity	1.3	-22.4	-1.4	/	/	/	7.6	/
eIF4H FP inh	78.4*	/	/	active	7.6	38.9	/	56.4*

[33] C[C@@H]1CN([C@@H](C)CO)S(=O)(=O)c2ccc(-c3ccccc3)cc2O[C@@H]1CN(C)Cc1ccccc1
[34] NS(=O)(=O)c1ccc(NC(=O)CSc2ccccn2)cc1
[35] NS(=O)(=O)c1cccc(NC(=O)CSc2ccccn2)c1
[36] Cc1ccc(-c2csc3ncnc(SCc4ccc(C(=O)O)cc4)c23)cc1
[37] Cc1sc2ncnc(SCc3ccc(C(=O)O)cc3)c2c1C
[38] C[C@@H]1CCCCO[C@H](CN(C)S(=O)(=O)c2ccc(F)cc2)[C@@H](C)CN([C@@H](C)CO)C(=O)c2cc(NC(=O)Nc3ccc(C(F)(F)F)cc3)ccc2O1
[39] COc1ccc(C2=Nc3cccc4cccc(c34)N2)cc1
[40] COc1ccc(-c2c[n+]3c(n2-c2ccccc2)CCCCC3)cc1
Screen / compound no.	33	34	35	36	37	38	39	40
MLLE-PAM2 inh	/	2.7	-1.5	-10.7	16.1	/	-2.9	-0.1
Pemphigus Ab inh	/	111.9	103.8	/	100.5	/	97.2	102.4
PABP polyA inh	/	i	+	i	i	/	i	+
UUG fidelity	9.7	-8.1	-7.4	/	-8.8	-6.6	-14.3	-7.0
eIF4H FP inh	/	-6.5	-3.4	94.6*	-5.4	/	78.1*	?

[41] COc1ccc(-c2c[n+]3c(n2-c2ccc(C)cc2)CCCCC3)cc1
[42] O=C(C1COc2ccccc2O1)N1CCCC1 (configuration not stated)
[43] O=C(C1COc2ccccc2O1)N1CCc2ccccc21 (configuration not stated)
[44] CO[C@@H]1CN(C)C(=O)c2ccc(NC(=O)C3CC3)cc2OC[C@@H](C)N(C(=O)CN(C)C)C[C@@H]1C
[45] Cc1cccc(C)c1OCC(=O)N/N=C/C=C/c1ccco1
[46] O=C(N/N=C/C=C/c1ccco1)/C(=C/c1ccccc1)NC(=O)c1ccccc1
[47] O=C(N/N=C/C=C/c1ccco1)c1ccccc1Cl
[48] CC(/C=C/c1ccco1)=N/NC(=O)c1ccccc1Cl
Screen / compound no.	41	42	43	44	45	46	47	48
MLLE-PAM2 inh	12.0	13.9	-6.4	/	9.6	3.6	0.2	-6.8
Pemphigus Ab inh	123.5	97.0	121.6	/	98.3	101.9	101.0	118.1
PABP polyA inh	i	i	i	/	i	+	+	i
UUG fidelity	-3.7	-10.7	-17.0	-14.7	/	-2.5	/	-10.5
eIF4H FP inh	3.4	-5.1	78.6*	/	88.2	51.0*	77.7*	3.0

Reformatted with values ahead of the structure: part of the list above
entry	MLLE-PAM2 inh	Pemphigus Ab inh	PABP polyA inh	UUG fidelity	eIF4H FP inh	Compound
45	9.6	98.3	i	/	88.2	Cc1cccc(C)c1OCC(=O)N/N=C/C=C/c1ccco1
46	3.6	101.9	+	-2.5	51.0*	O=C(N/N=C/C=C/c1ccco1)/C(=C/c1ccccc1)NC(=O)c1ccccc1

(more compounds)
[49] Cc1cccc(OCC(=O)N/N=C/C=C/c2ccco2)c1
[50] O=C(Cc1cccs1)N/N=C/C=C\c1ccco1
[51] O=C(C[C@H]1C[C@@H]2c3cc(NC(=O)Nc4ccccc4F)ccc3O[C@@H]2[C@H](CO)O1)NCC1CC1
[52] CCOC(=O)C(CSCC(=O)c1ccc(Cl)cc1Cl)NC(=O)OC(C)(C)C (configuration not stated)
[53] O=C(C=C1SCCS1)/C=C/c1ccco1
[54] O=C(/C=C/c1ccc([N+](=O)[O-])cc1)/C=C/c1ccco1
[55] O=C(O)C(C(=O)/C=C/c1ccco1)=C1SCCS1
Screen / compound no.	49	50	51	52	53	54	55
MLLE-PAM2 inh	-15.3	-6.5	/	48.7*	8.0	-21.3	12.5
Pemphigus Ab inh	103.0	90.8	/	104.1	101.0	101.6	101.3
PABP polyA inh	i	+	/	i	+	+	i
UUG fidelity	-27.6	/	-10.0	12.5	/	-23.5	-18.2
eIF4H FP inh	81.3*	102.6*	/	-7.2	89.7*	60.8*	74.3
